Experimental findings from publication PMC7144373, “Composition and Orientation of the Core Region of Novel HIV-1 Entry Inhibitors Influences Metabolic Stability” (Molecules, 2020) are described below.

A short description of this data set: Metabolic stability in human liver microsomes. The method, then: Metabolic stability analysis was performed as outlined in Lu et al..
Preparation of solutions. Test compound was weighed and dissolved in 100% DMSO to get 10 mM stock solution. The stock solution was diluted to 100 μM with mixture of acetonitrile and H2O (1:1). The final concentrations of DMSO and acetonitrile were equal to or less than 0.1%. […]
Microsomal incubation. Liver microsomes incubations were conducted in duplicate in 96-well plates. […] Reactions were terminated at various time points (0, 5, 10, 20, 40 min) by adding 150 µL of ice-cold methanol and acetonitrile (1:1, v/v) containing the internal standard.
LC-MS/MS analysis: A Waters liquid chromatographic system was used. […] The flow rate was maintained at 0.6 mL/min. Detection was performed on an API4000 Q-Trap mass spectrometer equipped with TurboIonSpray (ESI) Interface (Applied Biosystems, Concord, Ontario, Canada). Analyst 1.5 software packages (Applied Biosystems) were used to control the LC-MS/MS system, and for data acquisition and processing.
Data analysis: The peak area ratio of a test compound to internal standard was plotted as a percentage of the relevant zero time point control (%remaining) for each reaction. The rate of metabolism (k) is the slope of the linear regression from log percentage remaining versus incubation time.
For orientation: Microsomes from liver hold many membrane-bound enzymes, among them those of drug oxidation.

Take `C[C@]12CC[C@H]3[C@@H](CCC4=CC(=O)CC[C@@]43C)[C@@H]1CC[C@@H]2O` [Testosterone, reference compound]: the “Eh (hepatic extraction ratio)” value ((Clh/Q) × 100) is on record as 83.19%. Under “human, microsomes, pH 7.4”, this molecule registered a Clint of 102.7 µL/min/mg and a T1/2 of 13.5 min.
